{
  "source": "patent US20230072790A1",
  "about": "“COMPOUNDS AND FORMULATIONS FOR PROTECTIVE COATINGS” (Apeel Technology, Inc., priority 2021, published 2023)",
  "conditions": "versus no sucrose stearate",
  "note": "Like-named read-outs stand apart in the source and are kept apart here.",
  "data": [
    {"substance": "sucrose stearate", "values": [
      {"measurement": "increase in dispersion stability, determined by change in turbidity", "setting": "sucrose stearate (Sisterna B.V.) added to 50 g/L Treatment D, blended at 80°, FIG. 14", "value": "2 to 3", "unit": "fold"},
      {"measurement": "increase in dispersion stability, determined by change in turbidity", "setting": "sucrose stearate added to 50 g/L Treatment D, FIG. 13", "value": "2 to 3", "unit": "fold"}
    ]}
  ]
}
